Biological target: T1, Bcl-2 (Homo sapiens, UniProt P10415)
T1 construct: gene BCL2; Purified recombinant His-tagged Bcl-2
Test: biochemical
Set-up: AlphaLISA competitive displacement of biotin-tagged BAD or BIM peptide from His-tagged Bcl-2 family protein
Description: Purified recombinant His-tagged Bcl-xl, His-tagged Bcl-2 and His-tagged Bcl-w (Cat. No. SRP0187 for Bcl-xl, Cat. No. SRP0186 for Bcl-2 and Cat. No. B1059 for Bcl-w, Sigma-Aldrich) were incubated with increasing concentrations of compounds and a fixed concentration of biotin-tagged BAD (Cat No. SQ-ASPE-66592-1, AnaSpec, Fremont, CA) (for Bcl-xl) or BIM (Cat. No. SQ-ASPE-66592-2, AnaSpec) (for Bcl-2 and Bcl-w) peptides to a final volume of 40 µL in 96-well PCR plates. After 24 h incubation, 5 µL 6X His-Acceptor beads (final concentration 20 µg/mL) (Cat. No. AL128M, Perkin-Elmer, Waltham, MA, USA) were added to each well and incubated for 1 h. Thereafter, 5 µL streptavidin-donor beads were added (final concentration of 20 µg/mL) (Cat. No. 6760002, Perkin-Elmer) to each well and incubated for 30 min. At the end of the incubation period, 17 µL of each sample was transferred into adjacent wells of 384-well proxy plate (Cat. No. 6008280, Perkin-Elmer). The plate was scanned using Alpha program on a Biotek’s Synergy Neo2 multi-mode plate reader (Winooski, VT, USA). Gen5 version 3.04 software (BioTek, USA) was used for the AlphaLISA signal measurements. The inhibition constant (Ki) was calculated using non-linear regression, one site, competitive binding, fit Ki function on GraphPad Prism 7 software based on experimentally determined Kd for each protein/peptide pair.

Protein sequences, listed by entry. Tags and fused reporters are not part of them.
UniProt P10415, whole entry: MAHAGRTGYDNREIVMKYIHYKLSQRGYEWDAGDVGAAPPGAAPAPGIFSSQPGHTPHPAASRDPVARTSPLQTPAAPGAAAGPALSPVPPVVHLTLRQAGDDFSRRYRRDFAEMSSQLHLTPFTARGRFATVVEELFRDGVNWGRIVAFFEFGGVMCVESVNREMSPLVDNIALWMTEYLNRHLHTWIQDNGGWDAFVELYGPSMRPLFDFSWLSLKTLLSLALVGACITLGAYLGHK

Ki: 1.03 nM
Compound: CC1(C)CCC(c2ccc(Cl)cc2)=C(CN2CCN(c3ccc(C(=O)NS(=O)(=O)c4ccc(N[C@H](CCN5CCOCC5)CSc5ccccc5)c(S(=O)(=O)C(F)(F)F)c4)cc3)CC2)C1 [ABT263]

Reference: article PMC7181703, “Using proteolysis-targeting chimera technology to reduce navitoclax platelet toxicity and improve its senolytic activity” (Nature Communications, 2020)
